Measured values reported in patent publication US20260125400A1, “TYK2 DEGRADERS AND USES THEREOF” (Kymera Therapeutics, Inc., priority 2023, published 2026).

Protein sequences, listed by entry. Tags and fused reporters are not part of them.
UniProt P29597, whole entry: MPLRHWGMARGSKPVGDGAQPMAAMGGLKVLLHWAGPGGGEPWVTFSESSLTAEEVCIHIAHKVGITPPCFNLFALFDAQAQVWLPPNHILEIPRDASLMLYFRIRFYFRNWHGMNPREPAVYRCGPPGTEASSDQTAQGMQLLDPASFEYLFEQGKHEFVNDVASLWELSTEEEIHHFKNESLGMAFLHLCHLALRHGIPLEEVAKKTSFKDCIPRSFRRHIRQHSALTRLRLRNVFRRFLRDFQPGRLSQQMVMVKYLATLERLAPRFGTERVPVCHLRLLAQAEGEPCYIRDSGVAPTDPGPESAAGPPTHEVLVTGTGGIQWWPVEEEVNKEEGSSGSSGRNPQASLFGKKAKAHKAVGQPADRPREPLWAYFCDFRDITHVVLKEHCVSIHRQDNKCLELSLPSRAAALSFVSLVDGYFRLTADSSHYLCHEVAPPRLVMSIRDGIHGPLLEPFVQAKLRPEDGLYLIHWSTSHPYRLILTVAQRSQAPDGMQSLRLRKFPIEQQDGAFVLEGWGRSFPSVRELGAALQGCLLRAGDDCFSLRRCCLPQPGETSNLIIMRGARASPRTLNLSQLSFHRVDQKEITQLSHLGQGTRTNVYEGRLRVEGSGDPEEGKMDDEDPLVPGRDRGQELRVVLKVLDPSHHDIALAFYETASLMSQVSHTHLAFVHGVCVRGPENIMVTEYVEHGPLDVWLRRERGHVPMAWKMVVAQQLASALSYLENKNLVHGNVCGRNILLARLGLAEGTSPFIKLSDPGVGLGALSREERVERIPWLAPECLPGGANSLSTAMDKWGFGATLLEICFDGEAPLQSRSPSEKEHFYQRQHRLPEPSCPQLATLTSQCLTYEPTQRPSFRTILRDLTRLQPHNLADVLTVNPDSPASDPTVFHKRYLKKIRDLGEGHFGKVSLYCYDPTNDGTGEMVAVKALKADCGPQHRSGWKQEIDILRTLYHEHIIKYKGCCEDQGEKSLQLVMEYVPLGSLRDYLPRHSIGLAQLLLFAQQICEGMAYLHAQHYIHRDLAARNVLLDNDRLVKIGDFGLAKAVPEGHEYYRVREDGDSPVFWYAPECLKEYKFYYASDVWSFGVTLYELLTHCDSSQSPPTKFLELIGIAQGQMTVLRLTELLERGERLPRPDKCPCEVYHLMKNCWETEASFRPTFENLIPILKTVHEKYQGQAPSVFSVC

Target: TYK2 (Homo sapiens, UniProt P29597)
Experiment: TYK2 MSD degradation in OCI-LY10 cells
[1] = OCI-LY10 cells, 4 to 24 hours incubation
[2] = read-out: TYK2 MSD OCI-LY10 Rel-DC50, OCI-LY10 cells, 4 to 24 hours incubation
[3] = TYK2 degradation in OCI-LY10 cells, 4 to 24 hours incubation
[4] = read-out: TYK2 MSD OCI-LY10 Rel-DC50, TYK2 degradation in OCI-LY10 cells, 4 to 24 hours incubation
[5] = OCI-LY10 cells, incubated 4 to 24 hours
[6] = read-out: TYK2 MSD OCI-LY10 Rel-DC50, OCI-LY10 cells, incubated 4 to 24 hours

Compound | TYK2 MSD OCI-LY10 Dmax % [1] | DC50 [2] [nM] | TYK2 MSD OCI-LY10 Dmax % [3] | DC50 [4] [nM] | other results
CNc1cc(N2CCc3c(CN4CCC(CN5CCN(C(=O)c6ccc(Cl)c(C7CCC(=O)NC7=O)c6)CC5)CC4)cccc32)nn2c(C(=O)N[C@@H]3C[C@@H]3F)cnc12 (some centres unmarked) | D (D (<50%)) | < 10 | – | – | –
CNc1cc(N2CCc3c(CN4CC[C@H](N5CCC6(CCN(C(=O)c7ccc(Cl)c(N8CCC(=O)NC8=O)c7)CC6)CC5)C(F)(F)C4)cc(F)cc32)nn2c(C(=O)N[C@@H]3CC[C@H]3OC)cnc12 | – | – | A (A (>90%)) | < 1 | –
CNc1cc(N2CCc3c(CN4CC[C@H](CN5CCC6(CC5)CCN(C(=O)c5cc(C)c(Cl)c(N7CCC(=O)NC7=O)c5)CC6)C(F)(F)C4)cccc32)nn2c(C(=O)N[C@@H]3CC[C@H]3OC)cnc12 | – | – | – | – | TYK2 MSD OCI-LY10 Dmax % [5]: A (A (>90%)); DC50 [6]: < 1 nM
CNc1cc(N2CCc3c(-c4ncc(CN5CC6(CCN(C(=O)c7cc(C)c(Cl)c(N8CCC(=O)NC8=O)c7)CC6(F)F)C5)cc4F)cccc32)nn2c(C(=O)N[C@@H]3CC[C@H]3OC)cnc12 | – | – | A (A (>90%)) | < 1 | –
CNc1cc(N2CCc3c(CN4CCC(N5CCC6(CCN(C(=O)c7ccc(Cl)c(N8CCC(=O)NC8=O)c7)CC6)CC5)C(F)(F)C4)cccc32)nn2c(C(=O)N[C@@H]3CC[C@H]3OC)cnc12 (some centres unmarked) | – | – | A (A (>90%)) | < 1 | –
CNc1cc(N2CCc3c(-c4ccc(CN5CCC6(CCN(C(=O)c7ccc(Cl)c(N8CCC(=O)NC8=O)c7)CC6)C(F)(F)C5)cn4)cccc32)nn2c(C(=O)N[C@@H]3CC[C@H]3OC)cnc12 | B (B (90 to >75%)) | < 1 | – | – | –
CNc1cc(N2CCc3c(-c4ncc(CN5CC6(CCN(C(=O)c7cc(N8CCC(=O)NC8=O)c(Cl)cn7)CC6(F)F)C5)cc4F)cccc32)nn2c(C(=O)N[C@@H]3C[C@@H]3F)cnc12 | – | – | B (B (90 to >75%)) | < 1 | –
CNc1cc(N2CCc3c(CN4CC[C@H](N5CCC(CC6CCN(C(=O)c7cc(N8CCC(=O)NC8=O)c(Cl)c(C)n7)CC6)CC5)C(F)(F)C4)cccc32)nn2c(C(=O)N[C@@H]3CC[C@H]3OC)cnc12 | – | – | B (B (90 to >75%)) | < 10 | –
CNc1cc(N2CCc3c(-c4ccc(CN5CC6(CCN(C(=O)c7ccc(Cl)c(N8CCC(=O)NC8=O)c7)CC6(F)F)C5)cn4)cccc32)nn2c(C(=O)N[C@@H]3CC3(F)F)cnc12 | B (B (90 to >75%)) | < 1 | – | – | –
CNc1cc(N2CCc3c(CN4CC[C@@H](CN5CCC6(CC5)CCN(C(=O)c5cc(C)c(Cl)c(N7CCC(=O)NC7=O)c5)CC6)C(F)(F)C4)cccc32)nn2c(C(=O)N[C@@H]3CC[C@H]3OC)cnc12 | – | – | – | – | TYK2 MSD OCI-LY10 Dmax % [5]: A (A (>90%)); DC50 [6]: < 1 nM
CNc1cc(N2CCc3c(CN4CCC(CN5CCC6(CC5)CCN(C(=O)c5cc(Cl)c(C)c(N7CCC(=O)NC7=O)c5)CC6)C(F)(F)C4)cc(F)cc32)nn2c(C(=O)N[C@@H]3CC[C@H]3OC)cnc12 (some centres unmarked) | – | – | A (A (>90%)) | < 1 | –
CNc1cc(N2CCc3c(N4CC[C@@H](CN5CCN(c6ccc7c(c6)n(C)c(=O)n7C6CCC(=O)NC6=O)CC5)C4)cccc32)nn2c(C(=O)NC3CC3)cnc12 (some centres unmarked) | – | – | C (C (75 to 50%)) | < 1 | –
CO[C@@]1(c2cc(-c3ccc(CN4CCC5(CCN(C(=O)c6ccc(Cl)c(N7CCC(=O)NC7=O)c6)CC5)C(F)(F)C4)cn3)cc(-c3cn(C)c4cnc(NC(C)=O)cc34)n2)CCOC1 | – | – | B (B (90 to >75%)) | < 1 | –
CNc1cc(N2CCc3c(CN4CC[C@H](N5CCC6(CCN(C(=O)c7cc(N8CCC(=O)NC8=O)c(Cl)c(C)n7)CC6)CC5)C(F)(F)C4)cc(F)cc32)nn2c(C(=O)N[C@@H]3CC[C@H]3OC)cnc12 | – | – | A (A (>90%)) | < 1 | –
CNc1cc(N2CCc3c(-c4cc(CN5CCN(Cc6ccc(C7CCC(=O)NC7=O)c(Cl)c6)CC5)ccn4)cccc32)nn2c(C(=O)N[C@@H]3C[C@@H]3F)cnc12 (some centres unmarked) | D (D (<50%)) | > 100 | – | – | –
CNc1cc(N2CCc3c(CN4CCC(N5CCC(CC6CCN(C(=O)c7cc(C)c(Cl)c(N8CCC(=O)NC8=O)c7)CC6)CC5)C(F)(F)C4)cccc32)nn2c(C(=O)N[C@@H]3CC[C@H]3OC)cnc12 (some centres unmarked) | – | – | A (A (>90%)) | < 1 | –
CNc1cc(N2CCc3c(-c4ccc(CN5CC6(CCN(C(=O)c7ccc(Cl)c(N8CCC(=O)NC8=O)c7)CC6(F)F)C5)cn4)cc(Cl)cc32)nn2c(C(=O)N[C@@H]3C[C@@H]3F)cnc12 | – | – | A (A (>90%)) | < 1 | –
CNc1cc(N2CCc3c(-c4ccc(CN5CCC6(CCN(C(=O)c7ccc(C)c(N8CCC(=O)NC8=O)c7)CC6)C(F)(F)C5)cn4)cccc32)nn2c(C(=O)N[C@@H]3C[C@@H]3F)cnc12 | B (B (90 to >75%)) | < 1 | – | – | –
CNc1cc(N2CCc3c(-c4ccc(CN5CC6(CCN(C(=O)c7ccc(Cl)c(N8CCC(=O)NC8=O)c7)CC6(F)F)C5)cn4)cc(F)cc32)nn2c(C(=O)N[C@@H]3C[C@@H]3F)cnc12 | B (B (90 to >75%)) | < 1 | – | – | –

Where two headings read alike, the source gives them in different places.
